ChEMBL document CHEMBL1148605, “Synthesis and preliminary in vitro investigation of bivalent ligands containing homo- and heterodimeric pharmacophores at mu, delta, and kappa opioid receptors” (J Med Chem, 2006)

Chains of the proteins cited; added tags and fusions are not shown. Lines headed by an entry give the natural chain unless they say otherwise; changes in a name come on top.
UniProt P41145: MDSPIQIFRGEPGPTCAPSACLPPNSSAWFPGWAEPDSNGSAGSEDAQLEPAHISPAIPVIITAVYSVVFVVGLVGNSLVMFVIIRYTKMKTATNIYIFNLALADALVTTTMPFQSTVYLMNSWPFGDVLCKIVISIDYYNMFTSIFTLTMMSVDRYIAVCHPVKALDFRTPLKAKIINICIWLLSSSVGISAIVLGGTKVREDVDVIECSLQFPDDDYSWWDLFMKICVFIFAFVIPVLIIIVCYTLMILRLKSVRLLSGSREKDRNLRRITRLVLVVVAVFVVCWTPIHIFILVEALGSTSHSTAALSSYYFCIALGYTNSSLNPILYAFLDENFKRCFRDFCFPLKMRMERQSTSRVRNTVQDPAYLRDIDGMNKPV

Target: Kappa-type opioid receptor (Homo sapiens, UniProt P41145)
Assay: Functional activity at human kappa opioid receptor expressed CHO cells by [35S]GTPgammaS binding assay
Format: cell-based
Settings: filed as agonist

Structure (SMILES): CN(C(=O)Cc1ccc(Cl)c(Cl)c1)[C@H]1CCCC[C@@H]1N1CCCC1
- Activity: Agonist
